In PubChem BioAssay AID1984 (Sanford-Burnham Center for Chemical Genomics, 2009) one finds decrease of EGFP signal data, which are given here for 102 molecules.

Several values for one entry are separate records, joined by “and”; a condition that tells them apart may be missing. Equal entries are not always repeated. The list shows a part of the results, in another mix than the full data. Activity calls are given as the source filed them.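 How the source made its calls: active means EGFP signal decrease of at least 30% at 10 µM or well 3 SD below plate mean, unless failing retest; inactive means the rest, including hits failing retest or dose response.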

In this assay the target is p/CIP-EGFP fusion (nuclear receptor coactivator 3, mouse) (UniProt Q05BA5). Put plainly: p/CIP-EGFP fusion destabilizers, primary screen, fluorescence, F442A cells (AID 1984). The following applies: 16 h, at 10 µM, stronger effect = higher value.
On to `CCOc1ccc(C2=NCC(CBr)S2)cc1` (configuration not stated), for which the decrease of EGFP signal is inactive: -11.4%.
Consider `O=P1(Nc2nc3ccc(Cl)cc3s2)COc2ccccc2O1` (configuration not stated), for which the decrease of EGFP signal was inactive: -0.3%.
To `CC(C)(C)C(=O)NC(Sc1ccccc1)C(Cl)(Cl)Cl` (configuration not stated) belongs inactive: 0%; to `CC(=O)c1ccc(N2CC2c2ccncc2)cc1` (configuration not stated), inactive: -3.6%; to `C[C@@H]1C=CCP(=O)(Oc2ccccc2)O1` (some centres not stated), inactive: -3.7%.
As to `C[C@H]1OP(=O)(Oc2ccccc2)C[C@@H]2O[C@@H]21` (some centres not stated), the decrease of EGFP signal was inactive: 1.7%.
Take `CC(=O)Nc1ccc(Oc2c([N+](=O)[O-])cc([N+](=O)[O-])cc2[N+](=O)[O-])cc1`: the decrease of EGFP signal is inactive: 4.4%.
The result for `CC(=O)Nc1ccc([As](=O)(O)O)c(O)c1` reads inactive: -1.9%.
`O=C(NC1CCS(=O)(=O)C1)NP(=S)(Oc1ccccc1)Oc1ccccc1` (configuration not stated): the decrease of EGFP signal is inactive: 5.7%.
For the molecule `CCNC(=S)/N=C(\N)N[N+](=O)[O-]`, the decrease of EGFP signal is inactive: 12%.
As to `Cc1ccc(NP(=O)(Oc2cccc(C)c2)Oc2cccc(C)c2)nc1`, the decrease of EGFP signal is inactive: 14.3%.
As to `CCOC(=O)NC(Sc1ccccc1)C(Cl)(Cl)Cl` (configuration not stated), the decrease of EGFP signal was inactive: -1%.
In the case of `c1ccc(-c2nn[nH]n2)c(-c2nn[nH]n2)c1`, the decrease of EGFP signal was inactive: 0.7%.
Turning to `CC(=O)NC(SC(=S)N(CC(C)C)CC(C)C)C(Cl)(Cl)Cl` (configuration not stated), the decrease of EGFP signal is inactive: 1.8%.
Regarding `Cc1ccc(OP(=O)(Nc2ccccn2)Oc2ccc(C)cc2)cc1`, the decrease of EGFP signal is inactive: 3.9%.
For `COC(=O)c1cc2c(s1)N=C(c1ccccc1)N(C)P2(=O)N1CCOCC1` (configuration not stated), the decrease of EGFP signal is inactive: -3%.
Turning to `CCC(=O)N1C2C3N(C(=O)CC)C1C1N(C(=O)CC)C(C(N1C(=O)CC)N3C(=O)CC)N2C(=O)CC`, the decrease of EGFP signal is inactive: 2.3%.
Regarding `O=C(OC1CN2CCC1CC2)c1ccccc1` (configuration not stated), the decrease of EGFP signal is inactive: -6.6%.
As to `CN(C)C(=O)Oc1noc2ccccc12`, the decrease of EGFP signal was inactive: 8%.
With `O=c1c2cc([N+](=O)[O-])ccc2[nH]c2c([N+](=O)[O-])cc([N+](=O)[O-])cc12`, the decrease of EGFP signal is inactive: -16.8%.
The result for `Cc1ccccc1OP(=O)(Nc1ccccn1)Oc1ccccc1C` reads inactive: 3.9%.
As to `CN(C)C1(CNC(=O)c2ccc(Cl)c(S(N)(=O)=O)c2)CCCCC1`, the decrease of EGFP signal is inactive: 6.4%.
As to `O=P(Nc1ccccn1)(c1ccc(Br)cc1)c1ccc(Br)cc1`, the decrease of EGFP signal was inactive: 11.9%.
Consider `C[C@H]1OP(=O)(Oc2ccccc2)[C@H](O)[C@H](O)[C@H]1N=[N+]=[N-]` (some centres not stated), for which the decrease of EGFP signal is inactive: -2.6%.
Take `O=P(Nc1nc2ccccc2s1)(c1ccccc1)c1ccccc1`: the decrease of EGFP signal was inactive: -5.3%.
As to `CC(=O)NC(SC(=S)N(C)C)C(Cl)(Cl)Cl` (configuration not stated), the decrease of EGFP signal was inactive: 3%.
Take `O=[N+]([O-])c1ncn(CCn2cnc([N+](=O)[O-])n2)n1`: the decrease of EGFP signal is inactive: -3.7%.
Consider `O=[N+]([O-])c1ccc(O)c(/C=N/Nc2ccc([N+](=O)[O-])cc2[N+](=O)[O-])c1`, for which the decrease of EGFP signal was inactive: 3.8%.
Consider `O=[As](O)(c1ccccc1)c1ccc(O)cc1`, for which the decrease of EGFP signal was inactive: -0.3%.
For `Nc1ccc([As](=O)(O)c2ccc([N+](=O)[O-])cc2)cc1`, the decrease of EGFP signal is inactive: -2.2%.
With `C(Cc1nn[nH]n1)Cc1nn[nH]n1`, the decrease of EGFP signal was inactive: 0.5%.
With `O=C(OC1CN2CCC1CC2)c1cccc(Cl)c1` (configuration not stated), the decrease of EGFP signal is inactive: -10.6%.
To `O=P(Nc1nccs1)(c1ccccc1)c1ccccc1` belongs inactive: 1%; to `CC(C)C(=O)NC(Sc1ccccc1)C(Cl)(Cl)Cl` (configuration not stated), inactive: -1.4%.
As for `c1nnnn1CCn1cnnn1`, the decrease of EGFP signal is inactive: -10.4%.
Turning to `COc1ccc(C2=NCC(CBr)S2)cc1` (configuration not stated), the decrease of EGFP signal was inactive: 0.8%.
Turning to `CC(=O)N1C2C3N(C(C)=O)C1C1N(C(C)=O)C(C(N1C(C)=O)N3C(C)=O)N2C(C)=O`, the decrease of EGFP signal was inactive: -6.1%.
Take `O=[N+]([O-])c1cccc2n[nH]nc12`: the decrease of EGFP signal is inactive: 1.7%.
`O=[N+]([O-])c1cc([N+](=O)[O-])c(CCNc2ccccc2)c([N+](=O)[O-])c1`: the decrease of EGFP signal was inactive: -1.2%.
Turning to `CCc1nc2c(n1)c1c(non1O)c1c2no[n+]1[O-]`, the decrease of EGFP signal is inactive: -30.1%.
The result for `Cc1ccc(NP(=O)(Oc2ccccc2)Oc2ccccc2)nc1` reads inactive: 13.9%; that for `C[N+]1=C2C=CC=CC=C2SC12C([N+](=O)[O-])=CC([N+](=O)[O-])=C[C-]2[N+](=O)[O-]` (configuration not stated), inactive: -1.7%; that for `Nc1ccc([As](=O)(O)c2ccc(N)cc2)cc1`, inactive: 4.7%.
For the molecule `CCN(/C(=N/P(=O)(N1CCOCC1)N1CCOCC1)N1CCOCC1)c1ccc(OC)cc1`, the decrease of EGFP signal was inactive: 8.9%.
Regarding `CN(C)C(=O)OCCc1n(C)cc[n+]1C`, the decrease of EGFP signal was inactive: -11.1%.
The result for `CC(C)=N/N=C(\N)N[N+](=O)[O-]` reads inactive: -2.2%.
To `CC1CCN(C(=O)Oc2c(Cl)cc(Cl)c3cccnc23)CC1` belongs inactive: -14.1%; to `O=C(Nc1cc([As](=O)(O)O)ccc1O)c1ccccc1`, inactive: -0.6%.
Regarding `CC(C)(C)C(=O)NC(Sc1ccncn1)C(Cl)(Cl)Cl` (configuration not stated), the decrease of EGFP signal is inactive: -0.6%.
`O=[N+]([O-])c1ncn(CCn2ncnc2[N+](=O)[O-])n1`: the decrease of EGFP signal was inactive: 10.9%.
With `O=[N+]([O-])c1cccc(NC2=NCC(CBr)S2)c1` (configuration not stated), the decrease of EGFP signal was inactive: -12.6%.
As to `O=C(O)CNc1ccc([As](=O)(O)O)cc1`, the decrease of EGFP signal is inactive: 0%.
Take `O=C(O)c1ccccc1[As](=O)(O)O`: the decrease of EGFP signal is inactive: 4%.
Turning to `CC(=O)Nc1ccc([As](=O)(O)O)cc1`, the decrease of EGFP signal is inactive: 0%.
On to `O=P(Nc1nc2ccc(Cl)cc2s1)(c1ccccc1)c1ccccc1`, for which the decrease of EGFP signal is inactive: -2%.
In the case of `Cc1ccc(NP(=O)(Oc2ccccc2F)Oc2ccccc2F)nc1`, the decrease of EGFP signal was inactive: -4.9%.
To `CCOP(=O)(Nc1ccccc1)OCC` belongs inactive: 6.6% and inactive: 4%; to `Cc1cc(SC(NC(=O)c2ccc(F)cc2)C(Cl)(Cl)Cl)ncn1` (configuration not stated), inactive: -3.6%; to `O=[N+]([O-])c1cc([N+](=O)[O-])c(CCN2CCOCC2)c([N+](=O)[O-])c1`, inactive: -10.9%.
In the case of `CCN(N=Nc1nonc1N)c1nonc1N`, the decrease of EGFP signal is inactive: -1.1%.
In the case of `Nc1cccc2ccc([As](=O)(O)O)cc12`, the decrease of EGFP signal was inactive: -12.3%.
Regarding `NC(=O)c1cc([N+](=O)[O-])cc([N+](=O)[O-])c1N`, the decrease of EGFP signal was inactive: 0.5%.
Take `Cc1ccc(N/C(=N/P(=O)(N2CCOCC2)N2CCOCC2)N2CCOCC2)cc1`: the decrease of EGFP signal is inactive: -0.2%.
Turning to `Cc1ccc(OP(=O)(Nc2nccs2)Oc2ccc(C)cc2)cc1`, the decrease of EGFP signal was inactive: 1.6%.
As to `COc1ccccc1OP(=O)(Nc1ccc(C)cn1)Oc1ccccc1OC`, the decrease of EGFP signal was inactive: -12.7%.
The result for `Clc1ccc(Cl)c(NC2=NCC(CBr)S2)c1` (configuration not stated) reads inactive: -0.4%; that for `CN1CCCC(OC(=O)C(c2ccccc2)c2ccccc2)C1` (configuration not stated), inactive: 0.2%; that for `CC(C)CC(=O)NC(Sc1ccc(Cl)cc1)C(Cl)(Cl)Cl` (configuration not stated), inactive: -4%.
Consider `Nc1cc(N)c2nonc2c1[N+](=O)[O-]`, for which the decrease of EGFP signal is inactive: -2.5%.
As to `Cc1c2non([O-])c-2c(C)[n+](=O)[n+]1[O-]`, the decrease of EGFP signal was inactive: -3.5%.
Take `O=C(NC(Sc1ccncn1)C(Cl)(Cl)Cl)c1ccccc1` (configuration not stated): the decrease of EGFP signal is inactive: -6.1%.
To `Oc1ccccc1CNc1ccccn1` belongs inactive: -2.2%; to `Cc1cc(=O)[nH]c(N[N+](=O)[O-])n1`, inactive: 6.6%.
Regarding `O=C(OC1CN2CCC1CC2)C12CC3CC(CC(C3)C1)C2` (configuration not stated), the decrease of EGFP signal is inactive: 8.3%.
Regarding `Cc1c2c(nc3ccccc13)SC(C(Cl)Cl)C2` (configuration not stated), the decrease of EGFP signal was inactive: -17%.
Take `COc1cc(I)ccc1[As](=O)(O)O`: the decrease of EGFP signal was inactive: 2.6%.
In the case of `COc1ccc2nc(NP(=O)(c3ccccc3)c3ccccc3)sc2c1`, the decrease of EGFP signal is inactive: -10.7%.
`COc1ccc(N/C(=N/P(=O)(N2CCOCC2)N2CCOCC2)N2CCOCC2)cc1`: the decrease of EGFP signal is inactive: 6.6%.
With `O=[As](O)(c1ccc(O)cc1)c1ccccc1O`, the decrease of EGFP signal is inactive: -3%.
With `C[As](=O)(O)c1cccc(C(=O)O)c1`, the decrease of EGFP signal was inactive: -7.2%.
Regarding `Cc1ccc2nc3c(c(C)c2c1)CC(C(Cl)Cl)S3` (configuration not stated), the decrease of EGFP signal was inactive: -4.3%.
`Cc1ccc(OP(=O)(Nc2ccc([N+](=O)[O-])cn2)Oc2ccc(C)cc2)cc1`: the decrease of EGFP signal is inactive: 6%.
On to `CC(C)c1ccc(OP(=O)(Nc2ccccn2)Oc2ccccc2F)cc1` (configuration not stated), for which the decrease of EGFP signal was inactive: -4.6%.
For `ClCCSc1nnc(-c2cccnc2)o1`, the decrease of EGFP signal was inactive: -5%.
With `O=[N+]([O-])c1cc([N+](=O)[O-])c(-c2ccn[nH]2)s1`, the decrease of EGFP signal was inactive: 1%.
`CCN(CC)C(=S)SC(NC=O)C(Cl)(Cl)Cl` (configuration not stated): the decrease of EGFP signal was inactive: 4.2%.
Take `CC(C)NC(=O)NP(=O)(Oc1ccccc1)Oc1ccccc1`: the decrease of EGFP signal was inactive: 4.6%.
Consider `CCOC(=O)Nc1ccc([As](=O)(O)O)c(O)c1`, for which the decrease of EGFP signal was inactive: -11.8%.
In the case of `Cc1cc(SC(NC(=O)c2ccccc2)C(Cl)(Cl)Cl)nc(C(C)C)n1` (configuration not stated), the decrease of EGFP signal is inactive: -12.8%.
For `CCCCOc1ccc(C(=O)NCC2(N3CCCCC3)CCCCC2)cc1OC`, the decrease of EGFP signal was inactive: -4%.
For the molecule `CCOC(=O)Nc1cccc([As](=O)(O)O)c1`, the decrease of EGFP signal was inactive: -5.9%.
As for `O=[N+]([O-])c1ccc(Nc2ccc(Oc3ccc([N+](=O)[O-])cc3[N+](=O)[O-])cc2)c([N+](=O)[O-])c1`, the decrease of EGFP signal is inactive: 0.1%.
The result for `Cc1cc(SC(NC=O)C(Cl)(Cl)Cl)ncn1` (configuration not stated) reads inactive: 8.6%; that for `O=P(Nc1ccccn1)(c1cccc2ccccc12)c1cccc2ccccc12`, inactive: -1.2%; that for `COP1(=S)c2c(C)nn(CCC#N)c2N=C(c2ccc(F)cc2)N1C` (configuration not stated), inactive: 2.3%.
Regarding `O=C(Nc1ccncc1[N+](=O)[O-])c1ccc([N+](=O)[O-])cc1[N+](=O)[O-]`, the decrease of EGFP signal was inactive: -17.6%.
As to `O=C(COc1ccccc1)OC1CN2CCC1CC2` (configuration not stated), the decrease of EGFP signal is inactive: 7%.
Regarding `CCOC(=O)c1ccc(NC(=O)C(C)(CCl)SC)cc1` (configuration not stated), the decrease of EGFP signal is inactive: -3.3%.
Regarding `O=C(OC1CN2CCC1CC2)c1cccc([N+](=O)[O-])c1` (configuration not stated), the decrease of EGFP signal is inactive: 3%.
On to `CCC(C)N(CC(C)C)C(=S)SC(NC(C)=O)C(Cl)(Cl)Cl` (configuration not stated), for which the decrease of EGFP signal was inactive: -0.8%.
To `CCOP(=O)(Nc1ccc(C)cn1)OCC` belongs inactive: -5.2%.
To `CCOP(=O)(NC(=NC(C)c1ccccc1)NC(C)c1ccccc1)OCC` (configuration not stated) belongs inactive: -13.7%.
